One may read the IC50 as the concentration that inhibits the measured activity by half.

The chains behind the UniProt entries cited, without tags or fusion partners. Residues count along the entry.
UniProt P25116, 22-425: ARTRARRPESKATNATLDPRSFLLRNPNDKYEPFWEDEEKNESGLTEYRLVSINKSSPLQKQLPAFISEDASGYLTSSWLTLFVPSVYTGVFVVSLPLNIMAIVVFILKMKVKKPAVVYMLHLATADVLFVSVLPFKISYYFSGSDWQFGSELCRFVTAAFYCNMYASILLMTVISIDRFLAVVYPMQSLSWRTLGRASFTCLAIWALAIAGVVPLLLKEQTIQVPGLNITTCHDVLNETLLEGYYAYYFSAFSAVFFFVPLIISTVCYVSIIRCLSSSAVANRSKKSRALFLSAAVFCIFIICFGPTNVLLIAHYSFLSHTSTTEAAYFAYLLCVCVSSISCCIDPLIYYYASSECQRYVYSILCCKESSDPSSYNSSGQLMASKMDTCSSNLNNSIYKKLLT

Like-named read-outs stand apart in the source and are kept apart here.

The target in this test is PAR-1 receptor (Homo sapiens (Human), UniProt P25116). Nature of the test: PAR-1 FLIPR Assay. It counts as cell-based. On the procedure: This assay measures the potency of the inventive compounds as PAR-1 receptor antagonists.
Frozen HEK 293 Cells were plated in 384-well PDL coated plates at 12000 cells/well in 50 uL of DMEM media containing 10% FBS, pen/strep/L-Glutamine and non-essential amino acids, incubated overnight at 37° C./5% CO2. Media was then removed from the cells, incubated with 33 ul of Calcium-5 dye in assay buffer (Hank's buffer containing 20 mM HEPES, 0.04% Chaps and 2.5 mM Probenecid) for 60 minutes at 37° C. 2 uL of varying concentrations of compound in 40% DMSO in assay buffer (final DMSO concentration is 2.3%) were then added to the cells and incubated at 25° C. for 30 minutes. […] The range of peptide was from 1.5-3 μM. The final volume was 40 uL/well, with 2% DMSO. […] The data were analyzed by taking the peak signal over a portion of the range of the 60 scans and dividing this signal by the minimum signal for that same range.

[1] abbreviates: HEK 293 cells, calcium signal after PAR-1 selective receptor-activating peptide at 80% activation.

Consider `CC(C(N)=O)[C@@]12CC(F)(F)[C@@H](C)[C@H](/C=C/c3ccc(-c4ccccc4C#N)cn3)[C@@H]1[C@@H](C)OC2=O` (single isomer, unassigned) [Example 8, (R or S)-2-((1R,3aR,6S, 7R,7aS)-7-((E)-2-(5-(2-cyanophenyl)pyridin-2-yl)vinyl)-5,5-difluoro-1,6-dimethyl-3-oxooctahydro-isobenzofuran-3a-yl)propanamide], for which the IC50 under setting [1] was determined as 4.07 nM.

Consider `CC(C(N)=O)[C@@]12CC(F)(F)[C@@H](C)[C@H](/C=C/c3ccc(-c4ccccc4C#N)cn3)[C@@H]1[C@@H](C)OC2=O` (single isomer, unassigned) [Example 9, (S or R)-2-((1R,3aR,6S, 7R,7aS)-7-((E)-2-(5-(2-cyanophenyl)pyridin-2-yl)vinyl)-5,5-difluoro-1,6-dimethyl-3-oxooctahydro-isobenzofuran-3a-yl)propanamide], for which the IC50 under setting [1] amounted to 11.3 nM.

Take `CC(C(N)=O)[C@@]12CC(F)(F)[C@@H](C)[C@H](/C=C/c3ccc(-c4ccccc4C#N)cn3)[C@@H]1[C@@H](C)OC2=O` (stereo partly drawn) [Example 7, 2-((1R,3aR, 6S,7R,7aS)-7-((E)-2-(5-(2-cyanophenyl)pyridin-2-yl)vinyl)-5,5-difluoro-1,6-dimethyl-3-oxooctahydro-isobenzofuran-3a-yl)propanamide]: the IC50 is 4.43 nM.

The record behind these values is US9701669B2, “Preparation and use of 7a-amide substituted- 6,6-difluoro bicyclic himbacine derivatives as PAR-1 receptor antagonists” (Merck Sharp & Dohme Corp., priority 2013, dated 2017).
